These results are taken from PMC3510080, “Identification of Compounds with Anti-Proliferative Activity against Trypanosoma brucei brucei Strain 427 by a Whole Cell Viability Based HTS Campaign” (PLoS Neglected Tropical Diseases, 2012).

Values joined by “and” are separate entries in the source; they are usually repeats but may differ in a detail not shown here. Identical values can stand only once. Some results are limits rather than exact numbers.

One experiment deals with T.b. brucei. Nature of the experiment: Determination of the cidal action of compounds (MIC and parasite counts). It is filed as cell-based, Trypanosoma brucei brucei. To be noted: cell counts at 24, 48 and 72 hours (29 hours from Presto Blue). An excerpt:
The MIC was extrapolated as the minimum concentration at which there was a plateau of activity in the assay (>95% activity).

The test system of experiment [1] is T. cruzi Tulahuen strain C2C4. Description: T. cruzi Tulahuen strain C2C4 β-galactosidase assay; SI versus L6 cells. In kind it is cell-based, Trypanosoma cruzi. To be noted: relative to L6 cells. As for the experimental part:
(§1) L6 rat skeletal myoblasts, [29] were purchased from the American Type Culture Collection (ATCC, Rockville, MD, USA; ATCC number CRL 1458). This cell line was used for cytotoxicity testing to calculate an SI against T.b. rhodesiense and screened alongside the T.b. rhodesiense, P. falciparum, T. cruzi and L. donovani assays. L6 were also the host cells for the T. cruzi assay. Assays were performed in 96-well microtiter plates, each well containing 100 µl of RPMI 1640 medium supplemented with 1% L-glutamine (200 mM), 10% FCS, and 4000 L6 cells. Serial drug dilutions of eleven 3-fold dilution steps covering a range from 100 to 0.002 µg/ml were prepared. […] Then the plates were read with a Spectramax Gemini XS microplate fluorometer (Molecular Devices Cooperation, Sunnyvale, CA, USA) using an excitation wavelength of 536 nm and an emission wavelength of 588 nm. Data was analysed using the microplate reader software Softmax Pro (Molecular Devices, USA). […]
Rat skeletal myoblasts (L6 cells) were seeded in 96-well microtitre plates at 2000 cells/well in 100 µl RPMI 1640 medium with 10% FCS and 2 mM l-glutamine. […] A colour reaction developed within 2–6 hours that could be read photometrically at 540 nm. Data were transferred into the graphic programme Softmax Pro (Molecular Devices, USA), which calculated IC50 values. […]

For a further experiment, the system named is P. falciparum K1 strain. Nature of the experiment: P. falciparum 3H-hypoxanthine incorporation assay; SI versus L6 cells. To be noted: relative to L6 cells. In kind it is cell-based, Plasmodium falciparum. The method, then: as §1
Compounds dissolved in DMSO at 10 mg/ml were added to parasite cultures incubated in RPMI 1640 medium without hypoxanthine, supplemented with HEPES (5.94 g/l), NaHCO3 (2.1 g/l), neomycin (100 U/ml), Albumax (5 g/l) and washed human A^+ red blood cells at 2.5% haematocrit (0.3% parasitaemia). […] IC50 values were calculated from sigmoidal inhibition curves using Microsoft Excel.

Experiment [2] has as its system T.b. brucei bloodstream form lister 427. Nature of the experiment: T.b. brucei Alamar Blue viability estimation assay (384-well HTS, retest and rescreen). It is filed as cell-based, Trypanosoma brucei brucei. As for the experimental part: T.b. brucei lister 427 cells were maintained in log phase growth in 25 cm^2 tissue culture flasks (Corning, NY, USA) by sub-culturing at either 24 or 48 hour intervals. Cells were grown in HMI-9 medium, supplemented with 10% fetal calf serum (FCS) and 100 IU/ml penicillin/streptomycin (Invitrogen, Carlsbad, California, USA) with incubation at 5% CO2 at 37°C in humidified conditions. HEK293 cells were maintained in high glucose DMEM with L-glutamine, supplemented with 1× non-essential amino acids (NEAA; Invitrogen, USA) and 1 mM sodium pyruvate. Growth conditions were in 5% CO2 at 37°C, under humidified conditions.
All reagent and cell additions were made with a Multidrop liquid handler (Thermo Scientific, Newington, NH, USA) under sterile conditions. […] Wells were read at 535 nm (excitation) and 590 nm (emission) wavelengths on a Victor II Wallac plate reader (PerkinElmer, USA). […]
Primary screening of the library, consisting of 87,296 compounds in two hundred and forty eight 384-well plates, was undertaken in single point against T.b. brucei. […] Test compounds were added to plates in batches of 20 at two hour intervals, to maintain the timing of additions and reads.
Compound activity was calculated as the percentage inhibition in relation to positive and negative controls. […]

In a further experiment the test system is T.b. rhodesiense STIB900. Description: T. b. rhodesiense STIB900 assay (resazurin); SI versus L6 cells. In kind it is cell-based, Trypanosoma brucei rhodesiense. To be noted: relative to L6 cells. As for the experimental part:
as §1
T.b. rhodesiense STIB900 stock was isolated in 1982 from a human patient in Tanzania and after several mouse passages cloned and adapted to axenic culture conditions. […] Plates were then read with a Spectramax Gemini XS microplate fluorometer (Molecular Devices, USA) using an excitation wavelength of 536 nm and an emission wavelength of 588 nm. Data was analysed using the microplate reader software Softmax Pro (Molecular Devices, USA). […]
In general terms: Alamar Blue is a resazurin reagent that responds to reducing activity.

The subject of experiment [3] is L. donovani strain MHOM/ET/67/L82 axenic amastigotes. Nature of the experiment: L. donovani axenic amastigote fluorescence assay; SI versus L6 cells. It is filed as cell-based, Leishmania donovani. The conditions noted are these: relative to L6 cells. The method, then:
as §1
Amastigotes of L. donovani strain MHOM/ET/67/L82 were grown in axenic culture at 37°C in SM medium at pH 5.4 supplemented with 10% heat-inactivated FCS under an atmosphere of 5% CO2 in air. […] The plates were then read with a Spectramax Gemini XS microplate fluorometer (Molecular Devices, USA) using an excitation wavelength of 536 nm and an emission wavelength of 588 nm. Data was analysed using the software Softmax Pro (Molecular Devices, USA). […]

As to `O=C(Nc1ccc(Cl)c(-c2nc3ncccc3o2)c1)c1ccco1` [Compound 7], the “incubation time at the MIC for complete clearance of T.b. brucei parasites” value in the experiment with T.b. brucei was 72 h. Besides, the “Selectivity Index T.C” value in experiment [1] is listed as 98.6. For the same compound, in the experiment on P. falciparum K1 strain, the “Selectivity Index P.F” value came to 2.92. In addition, in experiment [2], the “Selectivity Index T.B” value was over 344. For the same compound, the “Selectivity Index T.R” value in the experiment on T.b. rhodesiense STIB900 is 39 and 38.4. The “Selectivity Index L.D” value in experiment [3] worked out at 12.5.
